From BindingDB's records for 7932569 (Virginia Commonwealth University, 1994)

Protein sequences, listed by entry. Tags and fused reporters are not part of them.
UniProt P42866, whole entry, looked up: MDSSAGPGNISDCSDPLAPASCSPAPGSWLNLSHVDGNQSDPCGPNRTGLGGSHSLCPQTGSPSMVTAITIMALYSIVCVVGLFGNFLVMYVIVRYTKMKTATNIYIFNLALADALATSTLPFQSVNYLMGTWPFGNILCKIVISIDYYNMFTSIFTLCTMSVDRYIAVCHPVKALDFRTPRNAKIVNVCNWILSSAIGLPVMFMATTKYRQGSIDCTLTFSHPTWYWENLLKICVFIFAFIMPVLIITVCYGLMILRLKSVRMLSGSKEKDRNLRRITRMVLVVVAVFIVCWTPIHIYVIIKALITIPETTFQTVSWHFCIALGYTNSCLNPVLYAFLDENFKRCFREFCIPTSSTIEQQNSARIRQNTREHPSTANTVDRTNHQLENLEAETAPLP

Target: Mu-type opioid receptor (Mus musculus, UniProt P42866)
Test: Binding affinity against opioid receptor by displacing radioligand [3HlU69,593

Compound `CN(C(=O)Cc1ccccc1)[C@H]1C[C@@]2(CCCO2)CC[C@@H]1N1CCCC1` has a Ki of 1.2 nM.
